Target: Nucleosome-remodeling factor subunit BPTF (Homo sapiens, UniProt Q12830)
Experiment: Inhibition of HIS9-tagged BPTF (unknown origin) expressed in Escherichia coli BL21 (DE3) cells incubated for 30 mins by AlphaScreen assay

## Cn1ncc(N[C@@H]2CCNC2)c(Cl)c1=O
  IC50: 10 µM

## Cn1ncc(N[C@H]2CCNC2)c(Cl)c1=O
  IC50: 31 µM
